# Reference: ChEMBL document CHEMBL1649246, “Complete nucleotide sequences of plasmids pEK204, pEK499, and pEK516, encoding CTX-M enzymes in three major Escherichia coli lineages from the United Kingdom, all belonging to the international O25:H4-ST131 clone” (2009)
# Tested on: Escherichia coli
# Assay: Antimicrobial activity against Escherichia coli DH5[alpha]
# Type: functional
sequence,measurement,value
GENTAMICIN,MIC,0.5 µg/mL
